Amino acid sequences for entries named in this document (tags omitted). Residues count along the entry.
UniProt Q05941, 23-502 limits assumed: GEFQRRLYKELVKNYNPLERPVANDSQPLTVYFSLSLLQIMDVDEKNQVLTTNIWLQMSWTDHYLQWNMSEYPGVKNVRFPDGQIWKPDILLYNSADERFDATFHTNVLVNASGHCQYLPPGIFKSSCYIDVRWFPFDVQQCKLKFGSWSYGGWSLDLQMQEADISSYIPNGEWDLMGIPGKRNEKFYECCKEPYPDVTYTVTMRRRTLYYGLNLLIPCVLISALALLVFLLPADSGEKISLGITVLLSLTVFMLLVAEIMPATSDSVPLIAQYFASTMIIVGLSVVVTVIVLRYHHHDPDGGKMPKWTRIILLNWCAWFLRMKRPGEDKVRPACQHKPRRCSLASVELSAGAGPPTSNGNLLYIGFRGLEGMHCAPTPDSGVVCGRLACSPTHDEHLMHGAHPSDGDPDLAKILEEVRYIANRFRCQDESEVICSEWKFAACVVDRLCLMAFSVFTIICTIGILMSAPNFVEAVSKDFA
UniProt P04757, 26-499 limits assumed: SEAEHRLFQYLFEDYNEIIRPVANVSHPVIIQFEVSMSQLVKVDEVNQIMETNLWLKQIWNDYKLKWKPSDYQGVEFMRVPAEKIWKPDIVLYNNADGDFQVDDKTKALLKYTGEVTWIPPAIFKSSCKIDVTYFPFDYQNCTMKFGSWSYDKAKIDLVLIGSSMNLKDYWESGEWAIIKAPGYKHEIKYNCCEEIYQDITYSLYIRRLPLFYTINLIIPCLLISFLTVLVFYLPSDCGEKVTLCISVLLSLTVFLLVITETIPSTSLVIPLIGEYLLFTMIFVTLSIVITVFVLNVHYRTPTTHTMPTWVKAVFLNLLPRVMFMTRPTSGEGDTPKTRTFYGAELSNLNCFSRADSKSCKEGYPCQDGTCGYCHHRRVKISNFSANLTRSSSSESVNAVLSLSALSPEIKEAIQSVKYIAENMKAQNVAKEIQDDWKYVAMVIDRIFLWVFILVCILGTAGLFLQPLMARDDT
UniProt P12392, 21-495 limits assumed: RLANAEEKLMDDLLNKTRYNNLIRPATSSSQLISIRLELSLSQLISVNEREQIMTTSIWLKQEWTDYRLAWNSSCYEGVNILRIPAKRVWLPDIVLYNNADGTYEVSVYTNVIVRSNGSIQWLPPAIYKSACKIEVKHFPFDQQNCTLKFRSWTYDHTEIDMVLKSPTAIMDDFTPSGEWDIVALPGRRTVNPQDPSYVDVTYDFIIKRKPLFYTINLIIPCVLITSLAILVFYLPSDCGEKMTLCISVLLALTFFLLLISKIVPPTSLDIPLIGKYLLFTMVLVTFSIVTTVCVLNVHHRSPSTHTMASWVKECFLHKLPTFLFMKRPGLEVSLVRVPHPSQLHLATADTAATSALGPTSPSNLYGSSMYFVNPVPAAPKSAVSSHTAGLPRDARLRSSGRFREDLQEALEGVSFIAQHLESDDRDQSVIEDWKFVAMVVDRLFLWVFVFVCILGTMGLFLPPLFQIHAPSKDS

According to ChEMBL document CHEMBL1135438, “Synthesis and pharmacological characterization of novel analogues of the nicotinic acetylcholine receptor agonist (+/-)-UB-165” (J Med Chem, 2002):

How the values were obtained:
[1] = target: Neuronal acetylcholine receptor subunit alpha-7 (Rattus norvegicus, UniProt Q05941); test: Binding affinity at rat brain Nicotinic acetylcholine receptor alpha7
[2] = target: T1, Neuronal acetylcholine receptor; alpha3/beta4 (Rattus norvegicus, UniProt P04757+P12392); test: Activation potency at Nicotinic acetylcholine receptor alpha3beta4, expressed as concentration required to achieve a half maximal activation
[3] = target: T1, Neuronal acetylcholine receptor; alpha3/beta4; test: Binding affinity at rat brain Nicotinic acetylcholine receptor alpha3-beta4

## CC(=O)C1=CCCC2CCC1N2 (stereo not drawn)
[1]
  Ki: 1.14 µM
[2]
  EC50: 2.29 µM
[3]
  Ki: 0.0254 µM
